# scFv variants of Ab-95 (light chain) against a SARS-CoV-2 spike peptide

Source: Engelhart et al. 2022 (doi:10.1038/s41597-022-01779-4), MIT Lincoln Laboratory and A-Alpha Bio; data file from the FLAb repository.

Target: peptide PDVDLGDISGINAS, taken from heptad repeat 2 (HR2) of SARS-CoV-2 spike.

Ab-95 is the parent antibody, in scFv form: VH, then the linker GGGGSGGGGSGGGGS, then VL. The heavy chain is unchanged in all variants.
VH: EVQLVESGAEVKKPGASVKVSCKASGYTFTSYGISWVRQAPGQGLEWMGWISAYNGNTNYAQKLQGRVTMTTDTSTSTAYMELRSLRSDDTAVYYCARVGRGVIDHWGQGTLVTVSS
VL: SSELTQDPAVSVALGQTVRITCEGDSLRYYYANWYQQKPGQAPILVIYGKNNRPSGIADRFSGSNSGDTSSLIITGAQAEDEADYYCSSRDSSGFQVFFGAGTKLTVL

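AAYL52 was designed without a model: most single CDR substitutions and a random sample of double and triple ones. In AlphaSeq, yeast of one mating type display the scFv and yeast of the other type display the target. Pairs that bind mate more often; barcode pairs of the diploids are counted by sequencing. The ratio of observed to expected reads was calibrated, replicate by replicate, on BCL2-family standards whose Kd was known from biolayer interferometry. Mating was done three times.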

Changes read parent residue, position, new residue, counted from the first residue of the VL shown.
Values are log10 of the apparent Kd in nM; lower means stronger binding.
The mean shown is taken over the replicates in which the pair was detected.
An entry "no signal" has no value in the source: the pair was not observed among the diploids in any replicate. This suggests poor binding but is not conclusive.
Background: pairings of library AAYL52 with three empty control strains gave a value in 28% of cases (median 3.91, 5th percentile 2.90). Values in that range, when seen in few replicates, are hard to tell from nonspecific mating. The control count says in how many pairings with the empty strains this scFv gave a signal.

For S88F S92A F95L, the assay gave no signal (0 of 3 replicates; controls 1 of 9).
For S55G G94F F98L, the assay gave 3.17 (1 of 3 replicates; controls 2 of 9).
For S88H S93E Q96W, the assay gave 1.77 (3 of 3 replicates; controls 3 of 9).
For S26T Y29G Y30I, the assay gave 1.45 (3 of 3 replicates; controls 4 of 9).
For E23H G24V S26A, the assay gave 3.97 (3 of 3 replicates; controls 1 of 9).
For S26G Y30C S88Q, the assay gave 3.75 (2 of 3 replicates; controls 2 of 9).
For L27E Y29G Y30I, the assay gave 2.46 (3 of 3 replicates; controls 3 of 9).
For Y31C N33K Q96G, the assay gave no signal (0 of 3 replicates; controls 2 of 9).
For D25H R28T P54E, the assay gave 2.65 (3 of 3 replicates; controls 2 of 9).
For G24S A32Q S88T, the assay gave 4.27 (2 of 3 replicates; controls 2 of 9).
For L27V S88G Q96K, the assay gave 3.41 (3 of 3 replicates; controls 3 of 9).
For E23F N33W S89P, the assay gave 3.07 (2 of 3 replicates; controls 4 of 9).
For G49M S92T G94N, the assay gave 3.91 (1 of 3 replicates; controls 1 of 9).
For E23R R28G V97L, the assay gave 1.89 (3 of 3 replicates; controls 1 of 9).
For E23C R28W F98Y, the assay gave 2.32 (3 of 3 replicates; controls 2 of 9).
For S26F N51F S92R, the assay gave 4.17 (1 of 3 replicates; controls 2 of 9).
For Y31N P54T S55F, the assay gave 2.21 (3 of 3 replicates; controls 4 of 9).
For Y31E D91R, the assay gave 2.52 (3 of 3 replicates; controls 3 of 9).
For E23H D25L P54G, the assay gave 3.12 (3 of 3 replicates; controls 3 of 9).
For N33D P54I, the assay gave no signal (0 of 3 replicates; controls 3 of 9).
For G24D S26K N52K, the assay gave 3.74 (1 of 3 replicates; controls 3 of 9).
For R28I Y31S A32P, the assay gave 1.86 (3 of 3 replicates; controls 1 of 9).
For L27Y Y29L, the assay gave 4.59 (1 of 3 replicates; controls 0 of 9).
For S26R Y31F, the assay gave no signal (0 of 3 replicates; controls 2 of 9).
For E23H G49C Q96N, the assay gave 3.78 (3 of 3 replicates; controls 2 of 9).
For E23W S89E G94Y, the assay gave 3.22 (2 of 3 replicates; controls 5 of 9).
For Y31E N33H N51Q, the assay gave 4.30 (2 of 3 replicates; controls 2 of 9).
For S88C S92K V97G, the assay gave no signal (0 of 3 replicates; controls 3 of 9).
For Y30I R90H D91K, the assay gave 2.98 (3 of 3 replicates; controls 4 of 9).
For L27F D91T, the assay gave 3.31 (3 of 3 replicates; controls 5 of 9).
For Y31I S88Y V97Q, the assay gave 4.16 (1 of 3 replicates; controls 3 of 9).
For Y29L K50C, the assay gave no signal (0 of 3 replicates; controls 0 of 9).
For N51W S92Q F95N, the assay gave 3.76 (2 of 3 replicates; controls 1 of 9).
For G49N S88I D91P, the assay gave 3.62 (3 of 3 replicates; controls 1 of 9).
For Y29C R53W F95E, the assay gave no signal (0 of 3 replicates; controls 2 of 9).
For L27P S88F G94C, the assay gave 4.69 (1 of 3 replicates; controls 3 of 9).
For D91V Q96N, the assay gave 4.76 (1 of 3 replicates; controls 1 of 9).
For Y30W S92C, the assay gave 3.10 (3 of 3 replicates; controls 0 of 9).
For S26T R28E S89D, the assay gave 2.50 (1 of 3 replicates; controls 0 of 9).
For Y29V R53Q V97C, the assay gave 4.62 (1 of 3 replicates; controls 7 of 9).
For E23K N33Q G49K, the assay gave no signal (0 of 3 replicates; controls 3 of 9).
For D25S L27N, the assay gave 3.14 (3 of 3 replicates; controls 3 of 9).
For A32L S93M G94L, the assay gave 3.75 (2 of 3 replicates; controls 3 of 9).
For R53P S93Q, the assay gave no signal (0 of 3 replicates; controls 6 of 9).

Repeated from above, the 3 best binders with a signal in all replicates:

For S26T Y29G Y30I, the assay gave 1.45 (3 of 3 replicates; controls 4 of 9).
For S88H S93E Q96W, the assay gave 1.77 (3 of 3 replicates; controls 3 of 9).
For R28I Y31S A32P, the assay gave 1.86 (3 of 3 replicates; controls 1 of 9).